The results in this text go back to patent US9024044B2, “Heteroarylcarboxylic acid ester derivative” (Ajinomoto Co., Inc., priority 2012, dated 2015).

Chains of the proteins cited; added tags and fusions are not shown. Residues count along the entry.
UniProt P98073, whole entry: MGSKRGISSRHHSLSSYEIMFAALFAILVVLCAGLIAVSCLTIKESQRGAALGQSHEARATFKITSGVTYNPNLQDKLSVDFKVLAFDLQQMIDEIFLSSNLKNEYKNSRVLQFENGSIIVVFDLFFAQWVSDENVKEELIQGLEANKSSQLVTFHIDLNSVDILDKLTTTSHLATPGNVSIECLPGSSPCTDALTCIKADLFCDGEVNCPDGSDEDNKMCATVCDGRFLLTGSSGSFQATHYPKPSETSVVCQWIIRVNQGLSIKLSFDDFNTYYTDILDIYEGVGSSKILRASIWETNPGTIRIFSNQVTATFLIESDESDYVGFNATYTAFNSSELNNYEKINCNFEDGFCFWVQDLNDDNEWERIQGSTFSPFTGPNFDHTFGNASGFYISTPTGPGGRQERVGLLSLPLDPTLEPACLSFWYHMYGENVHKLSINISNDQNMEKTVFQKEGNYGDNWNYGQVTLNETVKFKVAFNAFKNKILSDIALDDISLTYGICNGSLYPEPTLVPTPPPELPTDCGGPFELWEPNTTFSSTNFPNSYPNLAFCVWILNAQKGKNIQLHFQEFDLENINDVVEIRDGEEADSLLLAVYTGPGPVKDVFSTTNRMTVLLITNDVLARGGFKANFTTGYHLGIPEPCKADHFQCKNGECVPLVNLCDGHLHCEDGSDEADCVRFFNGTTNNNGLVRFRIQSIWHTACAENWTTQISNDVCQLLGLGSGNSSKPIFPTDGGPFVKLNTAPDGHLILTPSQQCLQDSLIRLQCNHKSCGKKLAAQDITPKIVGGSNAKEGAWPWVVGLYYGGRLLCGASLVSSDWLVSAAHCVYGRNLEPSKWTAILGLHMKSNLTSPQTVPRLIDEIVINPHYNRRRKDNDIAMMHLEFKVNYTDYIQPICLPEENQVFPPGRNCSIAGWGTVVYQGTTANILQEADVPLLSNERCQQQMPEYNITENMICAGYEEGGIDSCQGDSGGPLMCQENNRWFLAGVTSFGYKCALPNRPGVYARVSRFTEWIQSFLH
UniProt P07477, 24-247 limits assumed: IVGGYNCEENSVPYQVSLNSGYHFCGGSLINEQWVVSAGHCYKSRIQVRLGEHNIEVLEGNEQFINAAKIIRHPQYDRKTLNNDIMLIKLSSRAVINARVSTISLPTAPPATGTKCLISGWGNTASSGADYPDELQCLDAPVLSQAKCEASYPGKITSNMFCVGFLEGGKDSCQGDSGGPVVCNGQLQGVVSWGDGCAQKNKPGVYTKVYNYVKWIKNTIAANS

Experiment [1] deals with recombinant human enteropeptidase (Homo sapiens (Human), UniProt P98073). As to the kind of experiment: Measurement of enteropeptidase inhibitory activity. To be noted: read-out: Enteropeptidase inhibitory activity Ki, substrate Gly-Asp-Asp-Asp-Asp-Lys-β-Naphtylamide, Tris-HCl pH 8.0, Dixon plot, tested form: TFA. As for the experimental part: Measurement of Enteropeptidase Inhibitory Activity
Using a 96 well plate (#3915, Costar), a test compound (25 μL), 400 mM Tris-HCl buffer (pH 8.0, 25 μL) and 0.5 mg/mL fluorescence enzyme substrate (Gly-Asp-Asp-Asp-Asp-Lys-β-Naphtylamide, 25 μL) were mixed, and recombinant human enteropeptidase (R&D Systems, Inc., 25 μL) was added. Using a fluorescence plate reader fmax (Molecular Devices, Inc.), the reaction rate was measured from the time-course changes at excitation wavelength 320 nm and fluorescence wavelength 405 nm. The Ki value was calculated from the concentration of the test compound, reciprocal of reaction rate, and Km value of the enzyme substrate, and by using Dixon plot.

The next experiment deals with human trypsin (Homo sapiens, UniProt P07477). The experiment can be described thus: Measurement of trypsin inhibitory activity. The note with it: read-out: Trypsin inhibitory activity Ki, substrate Boc-Phe-Ser-Arg-AMC, Tris-HCl pH 8.0, Dixon plot, tested form: TFA. As to the method:
Measurement of Trypsin Inhibitory Activity
Using a 96 well plate (#3915, Costar), a test compound (25 μL) was mixed with 20 μM fluorescence enzyme substrate (Boc-Phe-Ser-Arg-AMC, 50 μL) mixed with 200 mM Tris-HCl buffer (pH 8.0), and human trypsin (Sigma, 25 μL) was added. Using a fluorescence plate reader fmax (Molecular Devices, Inc.), the reaction rate was measured from the time-course changes at excitation wavelength 355 nm and fluorescence wavelength 460 nm. The Ki value was calculated from the concentration of the test compound, reciprocal of reaction rate, and Km value of the enzyme substrate, and by using Dixon plot.

By Ki is commonly meant a dissociation constant, usually derived from enzyme kinetics or from competition with a known ligand. Consider `COC(=O)c1cc(NC(=O)C(C)(C)Cc2ccc(C(=O)Oc3ccc(C(=N)N)cc3F)s2)cc(C(=O)O)c1`, for which the Ki in experiment [1] came out at 1.22 nM; on human trypsin, 1.02 nM.
